The record followed here is PubChem BioAssay (Tox21).

This is a selection; strong and weak results do not stand in their true shares. Records with an inconclusive call do not appear. Active and inactive are the calls of the source. Calls come from the whole dose curve; as a rule, active = well fitted cell-killing curve with a large enough effect in the repeat runs; inconclusive = weak or mixed curves, or effect the other way; inactive = flat fitted curve, though single readings scatter.
% is set by controls: 0 for no effect and ±100 for the full control effect.

A short description of this assay: qHTS assay to identify small molecule antagonists of the estrogen receptor alpha (ER-alpha) signaling pathway using the BG1 cell line in the presence of 0.1 nM 17-beta-estradiol - cell viability counter screen (AID 1259241). Note: nearly all actives have a fitted effect of over 40% in size. The conditions noted are these: VM7Luc4E2 (BG1) viability, CellTiter-Fluor protease, 22 h, 0.1 nM estradiol agonist added; series mostly up to 92.4 µM; activity change, negative = cytotoxicity: at the top concentration. An excerpt: National Center for Advancing Translational Sciences [NCATS]
NIH Chemical Genomics Center [NCGC]
U.S. Environmental Protection Agency [EPA]
National Institutes of Environmental Health Sciences [NIEHS]
National Toxicology Program [NTP]
U.S. Food and Drug Administration [FDA]
Estrogen receptor (ER), a member of the nuclear hormone receptor plays an important role in development, metabolic homeostasis and reproduction. Two subtypes of ER, ER-alpha and ER-beta, have similar expression patterns with some uniqueness in both types. Endocrine disrupting chemicals (EDCs) and their interactions with steroid hormone receptors like ER causes disruption of normal endocrine function. Therefore, it is important to understand the effect of environmental chemicals in ER signaling pathway. For identifying ER antagonists, VM7Luc4E2 cell line was used to screen against Tox21 compound libraries.
VM7Luc4E2 cell line (provided by Denison MS, University of California) endogenously express full-length ER-alpha and is stably transfected with a plasmid containing four estrogen responsive elements (ERE) upstream of a luciferase reporter gene. The current screening for identification of ER-alpha inhibitors against Tox21 compound libraries used lower concentration (0.1 nM) of 17beta-Estradiol as a stimulator. The cytotoxicity of the Tox21 compound libraries against VM7Luc4E2 cell line was tested by measuring live-cell protease activity using CellTiter-Fluor assay in the same wells.
Tox21 Assay Protocol Summary:
VM7Luc4E2 cells were cultured in phenol red free assay medium containing 10% charcoal stripped FBS for 5 days prior to the assay. The cells were dispensed at 4,000 cells/well in 4 uL of assay medium into white wall/solid-bottom 1536-well plates (Corning Life Sciences, Corning, NY) using a Multidrop Combi (ThermoFisher Scientific, Waltham, MA) dispenser. After the assay plates were incubated at 37C and 5% CO2 for 24 hr, 23 nL of compounds dissolved in DMSO, positive controls or DMSO only was transferred to the assay plates by a Pintool station (Kalypsys, San Diego, CA). The transfer of compounds was followed by the addition of 1 uL of 0.1 nM (final concentration) agonist (17beta-Estradiol)/assay medium using a Flying Reagent Dispenser (FRD, Aurora Discovery, San Diego, CA). The plates were incubated at 37C and 5% CO2 for 22 hr. For cytotoxicity assay, 1 uL of CellTiter-Fluor reagent (Promega Corporation, Madison, WI) was added to each well using the FRD and after 30 min incubation at 37C and 5% CO2, The fluorescence intensity was measured using ViewLux plate reader (PerkinElmer, Shelton, CT).
With `CCNC(C)Cc1ccc2c(c1)OCO2` (stereo not drawn), the “activity change, negative = cytotoxicity” value was inactive: -9.29%. Still for that read-out and setting: as for `CC(C)CCCCCCCOP(OCCCCCCCC(C)C)Oc1ccccc1`, the figure is inactive: 2.84%; as for `CN(C(=O)Cc1ccccc1)[C@H]1CC[C@@]2(CCCO2)C[C@@H]1N1CCCC1`, inactive: -24.2% [at 42.5 µM]. Still for that read-out and setting: as for `O=[N+]([O-])c1ccc(S(=O)(=O)O)c([N+](=O)[O-])c1`, the figure is inactive: 1.35%; as for `CCC(C)(OOC(C)(C)C)OOC(C)(C)C`, inactive: 0.715% [at 19 µM]; as for `CN(C(=O)Cc1cccc2occc12)[C@H]1CC[C@@]2(CCCO2)C[C@@H]1N1CCCC1`, inactive: -17.7%. Still for that read-out and setting: for `O=[p+]1oc2ccccc2c2ccccc21` (stereo not drawn) the value was inactive: -0.123%.

`ClP(Cl)c1ccccc1`: the “activity change, negative = cytotoxicity” value is inactive: -1.76%. Still for that read-out and setting: as for `O=P(Cl)(Oc1ccccc1)Oc1ccccc1`, the figure is inactive: -4.1%; as for `CN(N=O)C(=N)N[N+](=O)[O-]`, inactive: 1.45%; as for `O=C(Cl)OCCOC(=O)Cl`, inactive: 0.544%. Take `O=[P+](Oc1ccccc1)Oc1ccccc1`: the “activity change, negative = cytotoxicity” value is inactive: 5.42%. Still for that read-out and setting: for `CCCCOP(OCCCC)OCCCC` the value was inactive: -1.27%; for `COC(=O)Cl`, inactive: 7.11%. Still for that read-out and setting: as for `CCCCC(CC)CO[P+](=O)OCC(CC)CCCC` (stereo not drawn), the figure is inactive: 6.72%; as for `CCOP(=S)(CC)Sc1ccccc1` (stereo not drawn), inactive: -4.57%; as for `CCOC(=O)Cl`, inactive: -3.44%.

Consider `NC(=O)Nc1ccc([As](=O)(O)O)cc1`, for which the Potency result was “inactive”. Turning to `O=C(Cl)Oc1ccccc1`, the “activity change, negative = cytotoxicity” value is inactive: -3.77%. In the case of `CN(C(=O)Cc1ccc(Cl)c(Cl)c1)[C@H]1CC[C@@]2(CCCO2)C[C@@H]1N1CCCC1`, the “activity change, negative = cytotoxicity” value is inactive: -9.13% [at 42.5 µM]. Consider `O=P(Cl)(Cl)c1ccccc1`, for which the “activity change, negative = cytotoxicity” value is inactive: 2.43%. As for `COP(=S)(Cl)OC`, the “activity change, negative = cytotoxicity” value was inactive: 5.2%. Regarding `CCCCO[P+](=O)OCCCC`, the Potency result was “inactive”.
